Earlier results on one substance are cited in article PMC9204313.

A word on the Kd: it is the concentration at which binding is half-saturated.

The target of one data set is Human fibrinogen (human) (UniProt P02671). As to the kind of experiment: SPR. As to conditions: cited from earlier work.
Another data set has as its target CYR61 (Homo sapiens) (UniProt O00622). In words: SPR. The conditions noted are these: cited from earlier work.

On to “integrin αD I-domain (from UniProt Q13349)”, for which the Kd is 760 nM with Human fibrinogen (human) and 290 nM with CYR61 (Homo sapiens).
